# PubChem BioAssay AID463082 (The Scripps Research Institute Molecular Screening Center, 2010)
# By UniProt entry, the sequences of proteins in these tests, tags left out.
# UniProt Q13093, whole entry: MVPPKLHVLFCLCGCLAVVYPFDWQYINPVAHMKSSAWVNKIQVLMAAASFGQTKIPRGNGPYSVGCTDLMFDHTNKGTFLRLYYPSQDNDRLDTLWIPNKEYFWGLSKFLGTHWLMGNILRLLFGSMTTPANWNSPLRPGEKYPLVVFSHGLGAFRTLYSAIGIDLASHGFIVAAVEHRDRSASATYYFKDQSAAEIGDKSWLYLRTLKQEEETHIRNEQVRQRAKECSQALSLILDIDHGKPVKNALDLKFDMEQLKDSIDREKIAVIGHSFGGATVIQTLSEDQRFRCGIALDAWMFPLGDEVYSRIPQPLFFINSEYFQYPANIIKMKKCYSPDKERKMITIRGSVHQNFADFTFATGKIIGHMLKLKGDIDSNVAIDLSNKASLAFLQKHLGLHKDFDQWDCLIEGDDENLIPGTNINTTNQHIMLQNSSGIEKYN
# Only a part is listed here, and it is no random draw. Some salts and complexes are drawn in separate pieces, as the source files them; their charges need not balance. The source made the active and inactive calls.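 How the source made its calls: active means inhibition above the mean inhibition across the screen plus 3 SD (cut at about 25% in these data); inactive means the rest.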
# Target: Platelet-activating factor acetylhydrolase (Homo sapiens) (UniProt Q13093)
# Assay: pPAFAH enzyme inhibitors, primary screen, biochemical, fluorescence polarization, human (AID 463082);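 further: inhibitors block binding of the rhodamine activity-based probe so polarization drops; 0% = enzyme with DMSO and 100% = wells lacking pPAFAH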
# Details: recombinant pPAFAH, FP-rhodamine probe fluorescence polarization; at 3.39 µM; active compounds read high
row,SMILES,inhibition
1,Cc1ccc(C)c(NP(C)(=O)Oc2ccccc2)c1 (stereo not drawn),inactive: -0.01%
2,Cc1cc(C)cc(OP(C)(=O)Nc2ccccn2)c1 (stereo not drawn),inactive: -0.74%
3,CP(=O)(Nc1cccc(Br)c1)Oc1ccccc1 (stereo not drawn),inactive: 0.84%
4,COc1ccccc1OP(C)(=O)Nc1cccc(Br)c1 (stereo not drawn),inactive: 2.05%
5,CCOC(=O)c1ccc(NP(C)(=O)Oc2cc(C)cc(C)c2)cc1 (stereo not drawn),inactive: -3.62%
6,Cc1cc(C)cc(OP(C)(=O)Nc2ccc(C)cc2C)c1 (stereo not drawn),inactive: -1.24%
7,CC1=NCCc2c1[nH]c1ccccc21.O=[N+]([O-])c1cc([N+](=O)[O-])c(O)c([N+](=O)[O-])c1,inactive: 7.52%
8,O=C(O)c1cccc(Nc2c([N+](=O)[O-])cc([N+](=O)[O-])cc2[N+](=O)[O-])c1,inactive: 3.4%
9,CN1CCCCC1COC(=O)C1(O)c2ccccc2CCc2ccccc21 (stereo not drawn),inactive: 4.85%
10,COc1ccccc1OP(C)(=O)Nc1c(C)cccc1C (stereo not drawn),inactive: -0.78%
11,CCCOc1ccc(NP(C)(=O)Oc2ccc(Cl)cc2)cc1 (stereo not drawn),inactive: 3.6%
12,CP(=O)(Nc1ccc(SC(F)(F)F)cc1)Oc1ccccc1 (stereo not drawn),inactive: 0.46%
13,CC1=C2N=C(C=C3N=C(C(C)=C4[N-][C@@](C)([C@@H]5N=C1[C@](C)(CCC(=O)NC[C@@H](C)OP(=O)([O-])O[C@H]1[C@@H](O)[C@@H](n6cnc7cc(C)c(C)cc76)O[C@@H]1CO)[C@H]5CC(N)=O)[C@@](C)(CC(N)=O)[C@@H]4CCC(N)=O)[C@@](C)(CC(N)=O)[C@@H]3CCC(N)=O)C(C)(C)[C@@H]2CCC(N)=O.[C-]#N.[Co+3],inactive: 1.5%
14,O=[N+]([O-])c1cc([N+](=O)[O-])c(Nc2nnnn2CCO)c([N+](=O)[O-])c1,inactive: 3.63%
15,CCOC(=O)C(CC)C1=NC(C)(C)Cc2ccccc21.O=[N+]([O-])c1cc([N+](=O)[O-])c(O)c([N+](=O)[O-])c1 (stereo not drawn),inactive: 3.55%
16,O=[N+]([O-])c1cc([N+](=O)[O-])c(-c2cnn(-c3ccccc3)c2)c([N+](=O)[O-])c1,inactive: 10.6%
17,Cc1nc2ccc3ccccc3c2s1.O=[N+]([O-])c1cc([N+](=O)[O-])c(O)c([N+](=O)[O-])c1,inactive: -1.02%
18,O=[N+]([O-])c1cc([N+](=O)[O-])c(-n2nnc3ccccc32)c([N+](=O)[O-])c1,inactive: 0.1%
19,O=[N+]([O-])c1cc([N+](=O)[O-])c(O)c([N+](=O)[O-])c1.c1ccc(Oc2ccncc2)cc1,inactive: 3.89%
20,CCOC(=O)c1ccc(NP(C)(=O)Oc2ccc(OC)cc2)cc1 (stereo not drawn),inactive: 2.2%
21,CCOP(C)(=S)SCC(=O)NC(C)C(=O)O (stereo not drawn),inactive: -0.82%
22,CP(=O)(Nc1ccccn1)Oc1ccc(Cl)cc1 (stereo not drawn),inactive: 4.78%

row,SMILES,inhibition
1,CP(=O)(Nc1ccc(SC(F)(F)F)cc1)Oc1ccc(Cl)cc1 (stereo not drawn),inactive: 10.2%
2,Cc1cccc(C)c1OP(C)(=O)Nc1ccc(SC(F)(F)F)cc1 (stereo not drawn),inactive: -13%
3,CP(=O)(Oc1ccccc1)OC(c1ccccc1)C(F)(F)F (stereo not drawn),inactive: 3.91%
4,CP(=O)(NC(=O)Nc1ccccc1)Oc1ccccc1 (stereo not drawn),inactive: 1%
5,CCc1ccc(OP(C)(=O)N2CCN(c3ccc([N+](=O)[O-])cc3)CC2)cc1 (stereo not drawn),inactive: -2.67%
6,Cc1cc(C)cc(OP(C)(=O)Nc2ccc(SC(F)(F)F)cc2)c1 (stereo not drawn),inactive: 5.95%
7,CP(=S)(Nn1cnnc1)Oc1ccccc1 (stereo not drawn),inactive: -0.26%
8,CP(=O)(Nc1ccccc1Br)Oc1ccccc1 (stereo not drawn),inactive: 2.87%
9,COc1ccccc1OP(C)(=O)Nc1ccccc1 (stereo not drawn),inactive: 2.3%
10,COc1ccccc1OP(C)(=O)Nc1ccc(C)cc1 (stereo not drawn),inactive: 5.94%
11,Cc1ccc(NP(C)(=O)Oc2ccccc2)c(C)c1 (stereo not drawn),inactive: -0.45%
12,CCOC(=O)c1ccc(NP(C)(=O)Oc2ccccc2)cc1 (stereo not drawn),inactive: 6.98%
13,Cc1cc(C)cc(OP(C)(N)=O)c1 (stereo not drawn),inactive: -0.45%
14,COc1ccccc1OP(C)(=O)Nc1cc(Cl)ccc1C (stereo not drawn),inactive: -0.87%
15,COc1ccc(OP(C)(=O)Nc2cccc(F)c2)cc1 (stereo not drawn),inactive: 4.59%
16,O=[N+]([O-])c1cc([N+](=O)[O-])c(Nc2cccnc2)c([N+](=O)[O-])c1,inactive: 16.9%
17,O=[N+]([O-])c1ccc2c(c1)C=Nc1ccccc1O2,inactive: 7.42%
18,CC(C)(C)c1ccc(OP(C)(=O)Nc2ccc(SC(F)(F)F)cc2)cc1 (stereo not drawn),inactive: 2.89%
19,Cc1cccc(C)c1OP(C)(N)=O (stereo not drawn),inactive: 1.56%
20,CCN(CC)CCCOC(=O)C(O)(c1ccccc1)c1ccccc1,inactive: 2.12%
21,Cc1c(NP(C)(=O)Oc2ccc(C(C)C)cc2)c(=O)n(-c2ccccc2)n1C (stereo not drawn),inactive: 0.88%
22,O=[N+]([O-])c1cc([N+](=O)[O-])c(Nc2ccccn2)c([N+](=O)[O-])c1,inactive: 2.46%

row,SMILES,inhibition
1,CP(=O)(Nc1ccccn1)Oc1ccccc1 (stereo not drawn),inactive: 3.65%
2,COc1ccccc1OP(C)(=O)Nc1ccc(C)cc1C (stereo not drawn),inactive: 2.41%
3,CCc1ccc(OP(C)(=O)O)cc1,inactive: 2.24%
4,COc1ccccc1OP(C)(=O)Nc1ccc(Br)cc1 (stereo not drawn),inactive: 5.77%
5,COc1ccc(OP(C)(=O)Nc2ccccn2)cc1 (stereo not drawn),inactive: 2.77%
6,CN(C)CCOC(=O)C(O)(c1ccccc1)C1CCCC1 (stereo not drawn),inactive: 5.13%
7,Cc1nc2ccc3ccccc3c2o1.O=[N+]([O-])c1cc([N+](=O)[O-])c(O)c([N+](=O)[O-])c1,inactive: 4.39%
8,CP(=O)(Nc1ccc(Cl)cc1Cl)Oc1ccccc1 (stereo not drawn),inactive: 0.12%
9,CP(=O)(OCCOc1ccccc1)OCCOc1ccccc1,inactive: 6.26%
10,Cc1cc(C)cc(OP(C)(=O)Nc2cccc(C(F)(F)F)c2)c1 (stereo not drawn),inactive: 1.27%
11,COc1ccccc1OP(C)(=O)Nc1ccc(C)c(C)c1 (stereo not drawn),inactive: 3.6%
12,COc1ccc(OP(C)(=O)Nc2ccccc2Br)cc1 (stereo not drawn),inactive: 2.32%
13,Nc1ccc2c(ccc3cccnc32)n1.O=[N+]([O-])c1cc([N+](=O)[O-])c(O)c([N+](=O)[O-])c1,inactive: 2.28%
14,CCOC(=O)c1ccc(NP(C)(=O)Oc2ccc(Cl)cc2)cc1 (stereo not drawn),inactive: 1.41%
15,CP(=O)(OC12CC3CC(CC(C3)C1)C2)OC12CC3CC(CC(C3)C1)C2,inactive: 4.07%
16,COc1ccccc1OP(C)(=O)Nc1ccccc1Br (stereo not drawn),inactive: -3.18%
17,CC(C)(C)c1ccc(OP(C)(=O)O)cc1,inactive: -2.98%
18,CP(=O)(Nc1ccc(Cl)cc1)Oc1ccc(F)cc1 (stereo not drawn),inactive: 0.46%
19,CN(C)C(=O)c1c([N+](=O)[O-])cc([N+](=O)[O-])cc1[N+](=O)[O-],inactive: 4.98%
20,CCN(CC)CC(O)COC(=O)C(O)(c1ccccc1)C1CCCCC1 (stereo not drawn),inactive: -0.14%
21,COc1ccc(OP(C)(=O)Nc2ccc(Br)cc2)cc1 (stereo not drawn),inactive: 1.45%
22,COc1ccccc1OP(C)(=O)Nc1c(C)n(C)n(-c2ccccc2)c1=O (stereo not drawn),inactive: 1.66%

row,SMILES,inhibition
1,O=C(OCCCN1CCCC1)C(O)(c1ccccc1)C1CCCCC1 (stereo not drawn),inactive: 0.86%
2,CP(=O)(Oc1ccccc1)N1CCOC1=O (stereo not drawn),inactive: 4.12%
3,CCc1ccc(OP(C)(=O)Nc2cccnc2)cc1 (stereo not drawn),inactive: 4.02%
4,CP(=O)(Nc1ccc2c(c1)OCCO2)Oc1ccccc1 (stereo not drawn),inactive: -0.93%
5,Cc1ccccc1NP(C)(=O)Nc1ccccc1C,inactive: 4.68%
6,CP(=O)(Nc1ccc(SC(F)(F)F)cc1)Oc1ccc(F)cc1 (stereo not drawn),inactive: -2.12%
7,CCOP(C)(=S)SCC(=O)NC(C)(CC)C(=O)O (stereo not drawn),inactive: -3.07%
8,O=[N+]([O-])c1cc([N+](=O)[O-])c(NCC2CCS(=O)(=O)C2)c([N+](=O)[O-])c1 (stereo not drawn),inactive: 1.12%
9,COc1ccc(OP(C)(=O)Nc2cccc(Br)c2)cc1 (stereo not drawn),inactive: 7.17%
10,CN(C)CCOC(=O)C(O)(c1ccccc1)C1CCCCC1 (stereo not drawn),inactive: 0.14%
11,COc1ccc(NP(C)(=O)Oc2ccccc2OC)cc1 (stereo not drawn),inactive: 2.81%
12,CCN(CC)CCCOC(=O)C(O)(c1ccccc1)C1CCCCC1 (stereo not drawn),inactive: 0.54%
13,CP(=O)(Nc1ccccc1)Oc1ccc(F)cc1 (stereo not drawn),inactive: 6.61%
14,O=[N+]([O-])c1cc([N+](=O)[O-])c(OC2CCCCC2O)c([N+](=O)[O-])c1 (stereo not drawn),inactive: 7.19%
15,CCCCCOc1ccc(NP(C)(=O)Oc2ccc(Cl)cc2Cl)cc1 (stereo not drawn),inactive: 10.5%
16,CCOC(=O)c1ccc(NP(C)(=O)Oc2ccc(F)cc2)cc1 (stereo not drawn),inactive: 0.16%
17,COc1ccc(OP(C)(=O)Nc2ccc(SC(F)(F)F)cc2)cc1 (stereo not drawn),inactive: 1.84%
18,O=C(OC1CN2CCC1CC2)c1ccc([N+](=O)[O-])cc1 (stereo not drawn),inactive: -0.34%
19,O=C(OCCN1CCN(CCOCc2ccccc2)CC1)C(O)(c1ccccc1)c1ccccc1,inactive: 0.93%
20,COc1ccc2c(c1O)-c1c(O)c(OC)cc3c1[C@H](C2)[N+](C)(C)CC3.O=[N+]([O-])c1cc([N+](=O)[O-])c([O-])c([N+](=O)[O-])c1[O-],inactive: 8.1%
21,CP(=O)(Nc1ccccc1F)Oc1ccccc1 (stereo not drawn),inactive: 4.01%
22,CC(C)c1ccc(OP(C)(=O)Nc2ccc(SC(F)(F)F)cc2)cc1 (stereo not drawn),inactive: -2.5%
